Among the data in ChEMBL document CHEMBL3862036, “Biphenyl Pyridazinone Derivatives as Inhaled PDE4 Inhibitors: Structural Biology and Structure-Activity Relationships” (J Med Chem, 2016) are Ratio IC50 values, retold here.

The species entered for assay [1] is Homo sapiens. Put plainly: Ratio of IC50 for PDE4 in PBMC (unknown origin) assessed as reduction in LPS-induced TNFalpha production to IC50 for human recombinant PDE4B1 assessed as reduction in [3H]cAMP hydrolysis.
The species entered for assay [2] is Homo sapiens. Kind of assay: Ratio of IC50 for inhibition of PDE4 in human whole blood assessed as reduction in LPS-induced TNFalpha production to IC50 for human recombinant PDE4B1 assessed as reduction in [3H]cAMP hydrolysis. In kind it is tissue-based.

As for `CCn1nc(-c2cccc(-c3ccc(F)c(C(=O)O)c3)c2)cc(NC(=O)Nc2c(Cl)cncc2Cl)c1=O`, in the assay listed under Homo sapiens [1], the Ratio IC50 is 100 to 1000. For `CCn1nc(-c2cccc(-c3ccc(O)cc3F)c2)cc(NC(=O)Nc2c(Cl)cncc2Cl)c1=O`, the Ratio IC50 in the assay filed under Homo sapiens [1] was 100 to 1000. For the compound `CCn1nc(-c2cccc(-c3cc(C(=O)O)ccc3F)c2)cc(NC(=O)Nc2c(Cl)cncc2Cl)c1=O`, in the assay listed under Homo sapiens [1], the Ratio IC50 was 100 to 1000.

`CCn1nc(-c2cccc(-c3cccc(O)c3)c2)cc(NC(=O)Nc2c(Cl)cncc2Cl)c1=O`: the Ratio IC50 in the assay filed under Homo sapiens [2] was 100. Regarding `CCn1nc(-c2cccc(-c3ccc(O)c(F)c3)c2)cc(NC(=O)Nc2c(Cl)cncc2Cl)c1=O`, the Ratio IC50 in the assay filed under Homo sapiens [1] was in the range of 100 to 1000.
